{"source": "patent US20060270643A1", "about": "“Hyfroxyflutamide induced pathways related to androgen receptor negative prostate cancer cells” (priority 2002, published 2006)", "molecular_target": "T1, EGFR (Homo sapiens, UniProt P00533)", "T1 construct": "endogenous in cells; host or cells: DU145", "test": "EGFR immunoprecipitation and anti-phosphotyrosine immunoblot in DU145 cells", "assay_type": "cell-based", "conditions": "pre-incubation with AG1478", "experimental": "9. […] DU145 cells were seeded and pre-incubated with (A) EGFR inhibitor tyrphostin AG1478 (100 nM) or cyclohexamide (100 μg/ml) and (B) EGFRmAb-528, or EGFRpAb-1005 for 1 hour before the EGF- or HF-treatment. After 15 min treatment, cells were lysed and immunoblotted with anti-phospho ERK1/2 and antiERK1/2 antibodies. (C) Effect of the EGF receptor (EGFR) inhibitor, tyrphostin AG1478, on HF-mediated tyrosine phosphorylation of the EGFR. Serum-Starved DU145 cells were pre-incubated with 100 μM AG1478 prior to stimulation with 10 ng/ml EGF, 1 μM HF or 10 nM of DHT for 20 min. EGFR was immunoprecipitated from the cell lysates, and their phosphotyrosine level was determined by anti-phosphotyrosine antibody. All the results were visualized using enhanced chemiluminescence.\n200. Serum-stared and treated DU145 cells were lysed with RIPA buffer for 30 min on ice. Lysates were then centrifuiged at 12,000 g for 10 min at 4° C. and protein concentrations were determined by the Bradford assay. 500 μg of cell lysates were incubated for 4 hours with either anti-Ras or anti-EGFR antibody (1/100, Santa Cruz Biotechnology) to the protein-antibody mixture and then added in 20 μl of protein A/G plus-agarose (Santa Cruz Biotechnology) for another 4 hours incubation with constant rotation. […]", "data": [{"smiles": "COc1cc2ncnc(Nc3cccc(Cl)c3)c2cc1OC", "note": "[AG1478]", "values": [{"measurement": "inhibition of EGF- and HF-mediated EGFR autophosphorylation", "result": "can inhibit both EGF- and HF-mediated EGFR autophosphorylation"}, {"measurement": "total EGFR concentration", "result": "without affecting total EGFR concentration"}]}]}
